Assay results published in patent US9814730B2, “Pharmaceutical composition or group of compositions for inhibiting autocrine HCG production in adult human cells” (FLAMINA HOLDING AG, priority 2013, dated 2017).

Tested on: fresh cells
Experiment: Tests in cell cultures: cells doped with nascent HCG, cancerous cell growth
Assay type: cell-based
Conditions: nascent HCG from early embryonic states of mamifers

Substance: HCG: Human Chorionic Gonadotropin; nascent HCG from early embryonic states, used to dope cell cultures
- cancerous cell growth: promotes cancerous cell growth
